Laboratory results reported in patent US4395399A, “Glycopeptides and method for preparing same” (Institut Bioorganicheskoi Khimii Imeni M.M. Shemyakina …, priority 1977, dated 1983).
Read-outs that look alike come from different tables or passages of the source.

Test system: 8-day Krocker sarcoma (S-180)
Settings: intravenous, mice with sarcoma S-180

| Substance | Death of animals (dose 250 mg/kg) | Death of animals (dose 50 mg/kg) | Death of animals (dose 100 mg/kg) |
| --- | --- | --- | --- |
| Amide of N^ε [Alanyl-D-glutamyl-D-iso-asparaginyl]-lysyl-D-alanine [XII] | 0 | – | – |
| amide of N^ε -[N-acetylglucosaminyl/1→4/N-acetylmuramyl-alanyl-D-glutamyl-D-iso- asparaginyl]-lysyl-D-alanine [IV] | – | 0 | 0 |
